Results reported in PMC7230519, “Comparative Kinetics of Acetyl- and Butyryl-Cholinesterase Inhibition by Green Tea Catechins|Relevance to the Symptomatic Treatment of Alzheimer’s Disease” (2020).

Protein sequences, listed by entry. Tags and fused reporters are not part of them. Residues count along the entry.
UniProt O42275, 24-633 limits assumed: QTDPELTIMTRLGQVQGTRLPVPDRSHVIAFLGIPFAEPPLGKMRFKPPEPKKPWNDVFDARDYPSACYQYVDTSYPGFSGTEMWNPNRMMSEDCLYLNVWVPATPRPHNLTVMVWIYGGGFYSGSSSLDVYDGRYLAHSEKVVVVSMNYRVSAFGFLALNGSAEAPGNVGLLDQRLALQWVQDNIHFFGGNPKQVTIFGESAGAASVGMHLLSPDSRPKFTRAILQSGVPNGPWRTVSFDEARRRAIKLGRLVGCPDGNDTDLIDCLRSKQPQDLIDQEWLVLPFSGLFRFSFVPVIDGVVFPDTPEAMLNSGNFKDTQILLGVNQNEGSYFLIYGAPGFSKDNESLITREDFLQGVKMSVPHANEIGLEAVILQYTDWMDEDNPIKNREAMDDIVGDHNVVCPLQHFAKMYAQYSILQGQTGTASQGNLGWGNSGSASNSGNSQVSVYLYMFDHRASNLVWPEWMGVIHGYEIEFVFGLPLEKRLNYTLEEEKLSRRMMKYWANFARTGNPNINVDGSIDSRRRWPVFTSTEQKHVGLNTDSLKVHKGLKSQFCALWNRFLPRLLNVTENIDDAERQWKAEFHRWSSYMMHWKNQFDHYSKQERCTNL
UniProt P81908, whole entry, looked up: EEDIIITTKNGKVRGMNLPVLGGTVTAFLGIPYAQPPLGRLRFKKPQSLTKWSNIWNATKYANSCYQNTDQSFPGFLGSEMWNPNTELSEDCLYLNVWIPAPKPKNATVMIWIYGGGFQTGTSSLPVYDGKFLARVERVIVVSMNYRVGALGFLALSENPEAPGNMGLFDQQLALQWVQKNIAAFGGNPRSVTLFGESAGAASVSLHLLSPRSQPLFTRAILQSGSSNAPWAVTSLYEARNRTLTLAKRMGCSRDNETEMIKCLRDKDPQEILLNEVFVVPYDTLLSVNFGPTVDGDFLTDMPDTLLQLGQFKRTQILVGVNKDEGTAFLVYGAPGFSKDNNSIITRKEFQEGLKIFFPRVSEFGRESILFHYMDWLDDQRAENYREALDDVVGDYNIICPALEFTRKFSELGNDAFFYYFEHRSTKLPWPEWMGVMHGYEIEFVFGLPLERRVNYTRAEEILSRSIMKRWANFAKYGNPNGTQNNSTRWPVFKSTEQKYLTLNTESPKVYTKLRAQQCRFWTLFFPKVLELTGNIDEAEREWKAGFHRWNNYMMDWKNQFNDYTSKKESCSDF

Key:
[1] = target: Acetylcholinesterase (AChE) (EC 3.1.1.7) from electric eel (Electrophorus electricus, UniProt O42275); assay: Ellman assay, AChE inhibition
[2] = target: T1, Butyrylcholinesterase (BuChE) from equine serum (Equus caballus, UniProt P81908); assay: Ellman assay, BuChE inhibition
[3] = target: Acetylcholinesterase (AChE) from electric eel (Electrophorus electricus, UniProt O42275); assay: Kinetic analysis of AChE inhibition, Lineweaver-Burk plots; conditions: for Km / VMAX: AChE; for Type of AChE inhibition: from L-B plots, VMAX and KM
[4] = estimated; in mice; cited from earlier work
[5] = target: T1, Butyrylcholinesterase (BuChE) from equine serum; assay: Kinetic analysis of BuChE inhibition, Lineweaver-Burk plots; conditions: for VMAX: BuChE
[6] = inhibitor 2.000 mg/mL, final assay concentration 0.103 µmol/mL
[7] = inhibitor 1.000 mg/mL, 0.051 µmol/mL
[8] = inhibitor 2.000 mg/mL, 0.103 µmol/mL
[9] = inhibitor 5.000 mg/mL, final assay concentration 0.248 µmol/mL
[10] = minimum concentration for statistically significant inhibition, one-way ANOVA with post-hoc Tukey
[11] = inhibitor 2.500 mg/mL, 0.124 µmol/mL
[12] = inhibitor 5.000 mg/mL, 0.248 µmol/mL
[13] = inhibitor 5.000 mg/mL, final assay concentration 0.371 µmol/mL
[14] = inhibitor 2.500 mg/mL, 0.186 µmol/mL
[15] = inhibitor 5.000 mg/mL, 0.371 µmol/mL

SMILES: O=C(O[C@@H]1Cc2c(O)cc(O)cc2O[C@@H]1c1ccc(O)c(O)c1)c1cc(O)c(O)c(O)c1
- AChE Inhibition (%) [1, 6]: 37.14%
- BuChE Inhibition (%) [2, 6]: 45.65%
- Km [3, 7]: 75 µM
- VMAX [3, 7]: 0.041 mM
- Km [3, 8]: 74 µM
- VMAX [3, 8]: 0.030 mM
- Type of AChE inhibition [3]: uncompetitive

SMILES: O=C(O[C@@H]1Cc2c(O)cc(O)cc2O[C@@H]1c1cc(O)c(O)c(O)c1)c1cc(O)c(O)c(O)c1
- Blood-brain barrier permeability [4]: 2.8%
- AChE Inhibition (%) [1, 9]: 82.35%
- BuChE Inhibition (%) [2, 9]: 89.64%
- Threshold [Inhibitor] required for BuChE inhibition [2, 10]: <0.001 µmol/mL
- Km [3, 11]: 94 µM
- VMAX [3, 11]: 0.014 mM
- Km [3, 12]: 5300 µM
- VMAX [3, 12]: 0.081 mM
- VMAX ([5]; inhibitor 0.125 mg/mL, 0.124 µmol/mL): 0.021 mM
- VMAX ([5]; inhibitor 0.250 mg/mL, 0.248 µmol/mL): 0.030 mM
- Type of BuChE inhibition ([5]; from L-B plots, VMAX and KM): competitive

SMILES: Oc1cc(O)c2c(c1)O[C@H](c1cc(O)c(O)c(O)c1)[C@H](O)C2
- AChE Inhibition (%) [1, 13]: 82.65%
- Threshold [Inhibitor] required for AChE inhibition [1, 10]: 0.023 µmol/mL
- BuChE Inhibition (%) [2, 13]: 47.72%
- Km [3, 14]: 25 µM
- VMAX [3, 14]: 0.013 mM
- Km [3, 15]: 27 µM
- VMAX [3, 15]: 0.009 mM
- Type of AChE inhibition [3]: uncompetitive
